Test system: C3H10T1/2 cells
Assay: Micromass culture of MAST4 knockout cells with BMP2, alcian blue staining
Type: cell-based, mouse
Conditions: MAST4 knockout cells, 100, 500 or 1000 ng/ml BMP2, from day 3, FIG. 6
Method: In detail, MAST4 knockout cells were prepared as in Example 2-1, and micromass culture was performed with reference to a known method (Differentiation and Mineralization of Murine Mesenchymal C3H10T1/2 Cells in Micromass Culture, 2010, Rani Roy). First, 10 μl of a medium containing total 10^5 fibroblast cells were put in the center of each well of a 12-well plate, and incubated for 2 hours. 1 ml of DMEM containing 10% FBS was added to each well. Thereafter, 100 ng/ml, 500 ng/ml, or 1000 ng/ml of BMP2 was added to each culture depending on the purpose of cartilage induction, respectively. Thereafter, the medium was replaced with a fresh medium every three days.
In detail, plates of cells corresponding to each date were washed twice with PBS and fixed for 15 minutes by adding 1 ml of 4% paraformaldehyde. Then, 1 ml of 1% alcian blue 8-GX (Sigma-Aldrich, A5268) dissolved in 0.1 N HCl (pH 1.0) was added and stained overnight. After washing twice with 500 μl of 0.1 N HCl, images were obtained.

B1: BMP2: chondrogenic inducer added to micromass culture (protein, UniProt P12643 283-396, looked up)
Bone morphogenetic protein 2: QAKHKQRKRLKSSCKRHPLYVDFSDVGWNDWIVAPPGYHAFYCHGECPFPLADHLNSTNHAIVQTLVNSVNSKIPKACCVPTELSAISMLYLDENEKVVLKNYQDMVVEGCGCR
  degree of chondrogenesis and extracellular matrix secretion (alcian blue staining): increased with increasing BMP2 concentration
